Consider three compounds from patent US10787419B2, “Cannabinoid receptor mediating iminopyrazole compounds” (The United States of America, as represented by the …, priority 2012, dated 2020).

For series [1], the target named is T1, CB1 (Mus musculus (Mouse), UniProt P47746). As to the kind of experiment: radioligand displacement assay in mouse brain membranes (Ki CB1). In kind it is binding.
Series [2] deals with T1, CB1.
For series [3], the system named is DIO mice. As to the kind of experiment: mice with diet-induced obesity (DIO) treated orally for 14 days. In kind it is in vivo. The settings on record: 10 mg/kg/day oral.
Series [4] can be described thus: tissue levels in brain and plasma after administration to mice. The note with it: 1 hour after administration of 10 mg/kg to mice.

Molecules are shown by their SMILES. Read-outs that look alike come from different tables or passages of the source.

Regarding `CC(=N)N/C(=N\S(=O)(=O)c1ccc(Cl)cc1)N1CC(c2ccccc2)C(c2ccc(Cl)cc2)=N1` (racemic) [Compound 2, 3-(4-chlorophenyl)-N′-((4-chlorophenyl)sulfonyl)-N-(1-iminoethyl)-4-phenyl-4,5-dihydro-1H-pyrazole-1-carboximidamine], the Ki in series [1] (Table 1, read-out: Ki CB1) stood at 18 nM; in series [1] (Table 2, read-out: Ki CB1), 18 nM. Moreover, in series [2], the “Functional GTPγS binding CB1 Emax” value was −20 % basal. Besides, the IC50 in series [2] (read-out: Functional GTPγS binding CB1 IC50) worked out at 50 nM. Moreover, the “body weight reduction relative to vehicle-treated DIO mice” value in series [3] is ~10%.
For `CC(=N)N/C(=N\S(=O)(=O)c1ccc(Cl)cc1)N1C[C@H](c2ccccc2)C(c2ccc(Cl)cc2)=N1` [Compound 2E1], the Ki in series [1] (Table 1, read-out: Ki CB1) turned out to be 9 nM; in series [1] (Table 2, read-out: Ki CB1), 9 nM; in series [1] (radioligand displacement, mouse brain membranes, read-out: Ki), 9 nM. Besides, in series [4], the “brain tissue level relative to plasma level” value is < 2 % of plasma level.
With `CC(=N)N/C(=N\S(=O)(=O)c1ccc(Cl)cc1)N1C[C@@H](c2ccccc2)C(c2ccc(Cl)cc2)=N1` [Compound 2E2], the Ki in series [1] (Table 1, read-out: Ki CB1) came out at 48 nM; in series [1] (Table 2, read-out: Ki CB1), 182 nM.
